Biological target: T1, human urokinase (μUK) (Homo sapiens, UniProt P00749, C299A/N322Q)
T1 construct: μUK (UK amino acids Ile^159-Lys^404 that contain Ala^279Gln^302); made in house; host or cells: baculovirus-infected High-Five insect cells or Pichia pastoris GS115 (secreted)
Experiment: Urokinase inhibition constants by S-2444 chromogenic activity
Format: biochemical
Settings: S-2444 substrate
Experimental: Assays were completed at both pH 6.5 (0.1 M NaPO4) and 7.4 (50 mM Tris).

Ki (Ki (pH 6.5), pH 6.5 (0.1 M NaPO4)): 0.32 µM | Ki (Ki (pH 7.4), pH 7.4 (50 mM Tris)): 2.5 µM
SMILES: Nc1ccc2cccc(Nc3ncccn3)c2n1 [Compound 35, 8-aminopyrimidinyl-2-aminoquinoline]

Source: patent US20040219607A1, “Ligand screening and design by X-ray crystallography” (priority 1998, published 2004)
